# Laboratory results as given in PubChem BioAssay AID1745857 (National Center for Advancing Translational Sciences (NCATS), 2022).
# Only a part is listed here, and it is no random draw. Some tests of the compounds listed are not included; inactive here does not mean inactive elsewhere. Records with an inconclusive call do not appear. Calls of active or inactive are those of the source. Calls follow the shape of the full dose curve.
# Assay: Primary qHTS Assay for Foot and Mouth Disease Virus Antivirals against NCGC Sytravon and CBC Compound Libraries: Renilla Luciferase Signal; also: nearly all actives have a fitted effect of over 55% in size
# Details: FMDV replicon cells; at 57.5 µM (top of the series)
# % is scaled to controls: 0 for no effect and ±100 for the full control effect.
row,Compound,"activity change, negative = inhibition"
1,Cc1cccc(C(=O)NCC2(N(C)C)CCCCC2)c1,inactive: -9.12%
2,COc1cc(C(=O)NCC2(N(C)C)CCCCC2)cc(OC)c1OC,inactive: 11.9%
3,CC(C)Oc1ccc(C(=O)NCC2(N(C)C)CCCCC2)cc1,inactive: -9.17%
4,COc1cccc(C(=O)NCC2(N3CCOCC3)CCCCC2)c1,inactive: -10.4%
5,CC(C)COc1ccc(C(=O)NCC2(N(C)C)CCCCC2)cc1,inactive: 4.89%
6,COc1ccc(C(=O)NCC2(N(C)C)CCCCC2)cc1Cl,inactive: -8.67%
7,CN(C)C1(CNC(=O)c2cccs2)CCCCC1,inactive: -0.455%
8,CCOc1cccc(C(=O)NCC2(N(C)C)CCCCC2)c1,inactive: -9.46%
9,O=C(NCC1(N2CCOCC2)CCCCC1)c1cc(=O)c2ccccc2o1,inactive: -2.64%
10,CN(C)C1(CNC(=O)c2ccccc2[N+](=O)[O-])CCCCC1,inactive: -10.8%
11,CCCCOc1ccccc1C(=O)NCC1(N(C)C)CCCCC1,inactive: -3.7%
12,CCOc1ccccc1C(=O)NCC1(N(C)C)CCCCC1,inactive: 0.574%
13,CN(C)C1(CNC(=O)c2cccc(Cl)c2)CCCCC1,inactive: -12.7%
14,CN(C)C1(CNC(=O)c2ccccc2F)CCCCC1,inactive: -14.3%
15,CC(CCN(CCCl)CCCl)c1ccccc1 (stereo not given),inactive: -29.6%
